For assay [1], the target named is T1, JAK1/TYK2 (Homo sapiens, UniProt P23458+P29597). Type of assay: cell-based.
The target in another assay is Janus Kinase (JAK) (Homo sapiens, UniProt P52333+P23458+O60674+P29597). Nature of the assay: Inhibition of JAK in human PBMC assessed as reduction in human recombinant IL-2/mouse anti-human CD3 stimulated IFNgamma production preincubated for 1 hr followed by IL2/CD3 stimulation measured after 18 hrs by ELISA. Summed up:
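Primary PBMCs stimulated with IL-2; inhibition of IFNγ release measured. IC50 values are geometric means of at least three determinations.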
(In an ELISA, binding on a coated surface is turned into a signal by an enzyme label.)

Protein sequences, listed by entry. Tags and fused reporters are not part of them. Lines headed by an entry give the natural chain unless they say otherwise; changes in a name come on top.
UniProt P23458: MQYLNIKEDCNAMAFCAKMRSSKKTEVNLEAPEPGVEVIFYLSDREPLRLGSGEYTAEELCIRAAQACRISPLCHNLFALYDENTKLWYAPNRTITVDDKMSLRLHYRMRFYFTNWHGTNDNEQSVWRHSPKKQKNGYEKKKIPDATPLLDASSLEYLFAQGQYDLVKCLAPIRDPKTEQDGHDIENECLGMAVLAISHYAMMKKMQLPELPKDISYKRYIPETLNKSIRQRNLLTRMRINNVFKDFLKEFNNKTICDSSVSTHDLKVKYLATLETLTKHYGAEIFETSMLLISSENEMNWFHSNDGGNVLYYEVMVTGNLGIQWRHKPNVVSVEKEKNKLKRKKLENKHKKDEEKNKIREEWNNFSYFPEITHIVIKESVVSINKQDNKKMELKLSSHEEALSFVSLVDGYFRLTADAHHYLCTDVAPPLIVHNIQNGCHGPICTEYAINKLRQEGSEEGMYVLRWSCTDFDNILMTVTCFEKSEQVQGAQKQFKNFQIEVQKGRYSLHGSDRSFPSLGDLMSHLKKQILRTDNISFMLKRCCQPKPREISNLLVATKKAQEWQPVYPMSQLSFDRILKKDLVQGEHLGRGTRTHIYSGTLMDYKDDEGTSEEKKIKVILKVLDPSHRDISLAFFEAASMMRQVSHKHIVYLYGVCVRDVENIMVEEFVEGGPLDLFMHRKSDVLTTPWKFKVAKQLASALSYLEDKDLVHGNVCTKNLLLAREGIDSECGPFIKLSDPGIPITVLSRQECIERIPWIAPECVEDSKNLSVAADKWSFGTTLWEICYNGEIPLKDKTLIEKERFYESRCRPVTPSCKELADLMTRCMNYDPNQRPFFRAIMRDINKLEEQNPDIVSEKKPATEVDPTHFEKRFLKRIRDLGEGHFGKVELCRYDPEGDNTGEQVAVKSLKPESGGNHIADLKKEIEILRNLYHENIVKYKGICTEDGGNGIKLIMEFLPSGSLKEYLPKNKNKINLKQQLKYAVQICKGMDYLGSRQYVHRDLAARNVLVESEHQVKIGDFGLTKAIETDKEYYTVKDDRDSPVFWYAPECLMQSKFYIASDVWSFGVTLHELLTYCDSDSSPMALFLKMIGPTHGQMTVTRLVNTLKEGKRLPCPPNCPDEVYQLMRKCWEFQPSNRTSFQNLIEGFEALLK
UniProt P29597: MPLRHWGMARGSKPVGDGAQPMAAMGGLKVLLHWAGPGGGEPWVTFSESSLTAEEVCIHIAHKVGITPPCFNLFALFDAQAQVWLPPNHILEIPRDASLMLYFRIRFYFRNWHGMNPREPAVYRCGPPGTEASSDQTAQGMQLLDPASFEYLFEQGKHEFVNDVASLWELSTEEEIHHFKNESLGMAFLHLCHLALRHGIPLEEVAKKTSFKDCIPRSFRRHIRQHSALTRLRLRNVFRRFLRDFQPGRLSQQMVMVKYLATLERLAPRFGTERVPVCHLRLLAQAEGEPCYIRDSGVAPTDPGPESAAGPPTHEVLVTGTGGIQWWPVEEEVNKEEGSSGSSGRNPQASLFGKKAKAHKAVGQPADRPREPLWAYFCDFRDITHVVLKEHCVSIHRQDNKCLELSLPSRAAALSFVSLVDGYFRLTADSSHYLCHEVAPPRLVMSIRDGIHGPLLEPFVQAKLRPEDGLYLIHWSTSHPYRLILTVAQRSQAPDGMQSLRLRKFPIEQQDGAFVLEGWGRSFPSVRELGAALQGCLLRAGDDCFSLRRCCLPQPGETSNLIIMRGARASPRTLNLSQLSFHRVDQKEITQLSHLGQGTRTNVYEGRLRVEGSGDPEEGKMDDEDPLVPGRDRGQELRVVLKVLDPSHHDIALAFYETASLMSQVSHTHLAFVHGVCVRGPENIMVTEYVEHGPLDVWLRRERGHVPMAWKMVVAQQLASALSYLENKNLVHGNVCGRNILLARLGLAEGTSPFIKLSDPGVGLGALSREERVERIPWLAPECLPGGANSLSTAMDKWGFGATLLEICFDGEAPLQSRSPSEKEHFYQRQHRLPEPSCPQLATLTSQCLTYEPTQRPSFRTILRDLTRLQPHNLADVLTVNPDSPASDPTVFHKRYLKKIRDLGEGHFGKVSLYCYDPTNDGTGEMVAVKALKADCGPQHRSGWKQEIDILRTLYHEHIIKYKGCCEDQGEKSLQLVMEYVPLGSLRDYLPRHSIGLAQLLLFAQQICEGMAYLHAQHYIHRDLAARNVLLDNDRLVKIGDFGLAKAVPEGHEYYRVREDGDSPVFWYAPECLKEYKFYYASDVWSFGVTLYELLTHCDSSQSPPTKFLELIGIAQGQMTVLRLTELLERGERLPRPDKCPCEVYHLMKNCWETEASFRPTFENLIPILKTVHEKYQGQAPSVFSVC
UniProt P52333: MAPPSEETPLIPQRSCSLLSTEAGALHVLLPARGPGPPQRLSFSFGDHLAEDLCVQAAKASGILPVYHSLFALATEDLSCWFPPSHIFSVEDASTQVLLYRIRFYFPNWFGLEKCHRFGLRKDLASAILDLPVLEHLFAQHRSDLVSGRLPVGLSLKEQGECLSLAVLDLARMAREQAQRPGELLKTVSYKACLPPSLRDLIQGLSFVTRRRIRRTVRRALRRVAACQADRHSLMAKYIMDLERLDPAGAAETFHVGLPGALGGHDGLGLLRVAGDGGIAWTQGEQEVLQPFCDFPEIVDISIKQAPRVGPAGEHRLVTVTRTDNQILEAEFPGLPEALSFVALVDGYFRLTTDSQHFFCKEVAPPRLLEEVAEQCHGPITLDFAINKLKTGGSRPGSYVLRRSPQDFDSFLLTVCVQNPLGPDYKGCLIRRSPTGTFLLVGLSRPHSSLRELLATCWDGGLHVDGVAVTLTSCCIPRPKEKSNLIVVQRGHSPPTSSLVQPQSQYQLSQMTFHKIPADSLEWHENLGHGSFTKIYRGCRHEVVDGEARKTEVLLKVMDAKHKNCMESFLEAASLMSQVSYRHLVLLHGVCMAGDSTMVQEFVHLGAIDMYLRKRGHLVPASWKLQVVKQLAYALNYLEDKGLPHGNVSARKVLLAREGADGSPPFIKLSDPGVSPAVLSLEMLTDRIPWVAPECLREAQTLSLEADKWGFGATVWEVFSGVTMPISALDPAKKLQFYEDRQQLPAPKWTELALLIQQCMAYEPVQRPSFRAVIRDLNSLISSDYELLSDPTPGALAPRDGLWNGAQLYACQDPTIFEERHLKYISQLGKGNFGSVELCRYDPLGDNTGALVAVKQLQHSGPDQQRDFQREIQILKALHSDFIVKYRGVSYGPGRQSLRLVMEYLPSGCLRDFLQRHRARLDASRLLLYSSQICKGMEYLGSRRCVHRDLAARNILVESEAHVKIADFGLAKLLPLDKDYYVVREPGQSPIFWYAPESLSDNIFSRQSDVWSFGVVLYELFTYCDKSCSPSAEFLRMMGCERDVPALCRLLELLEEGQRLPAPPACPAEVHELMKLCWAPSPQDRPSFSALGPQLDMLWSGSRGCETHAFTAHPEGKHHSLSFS
UniProt O60674: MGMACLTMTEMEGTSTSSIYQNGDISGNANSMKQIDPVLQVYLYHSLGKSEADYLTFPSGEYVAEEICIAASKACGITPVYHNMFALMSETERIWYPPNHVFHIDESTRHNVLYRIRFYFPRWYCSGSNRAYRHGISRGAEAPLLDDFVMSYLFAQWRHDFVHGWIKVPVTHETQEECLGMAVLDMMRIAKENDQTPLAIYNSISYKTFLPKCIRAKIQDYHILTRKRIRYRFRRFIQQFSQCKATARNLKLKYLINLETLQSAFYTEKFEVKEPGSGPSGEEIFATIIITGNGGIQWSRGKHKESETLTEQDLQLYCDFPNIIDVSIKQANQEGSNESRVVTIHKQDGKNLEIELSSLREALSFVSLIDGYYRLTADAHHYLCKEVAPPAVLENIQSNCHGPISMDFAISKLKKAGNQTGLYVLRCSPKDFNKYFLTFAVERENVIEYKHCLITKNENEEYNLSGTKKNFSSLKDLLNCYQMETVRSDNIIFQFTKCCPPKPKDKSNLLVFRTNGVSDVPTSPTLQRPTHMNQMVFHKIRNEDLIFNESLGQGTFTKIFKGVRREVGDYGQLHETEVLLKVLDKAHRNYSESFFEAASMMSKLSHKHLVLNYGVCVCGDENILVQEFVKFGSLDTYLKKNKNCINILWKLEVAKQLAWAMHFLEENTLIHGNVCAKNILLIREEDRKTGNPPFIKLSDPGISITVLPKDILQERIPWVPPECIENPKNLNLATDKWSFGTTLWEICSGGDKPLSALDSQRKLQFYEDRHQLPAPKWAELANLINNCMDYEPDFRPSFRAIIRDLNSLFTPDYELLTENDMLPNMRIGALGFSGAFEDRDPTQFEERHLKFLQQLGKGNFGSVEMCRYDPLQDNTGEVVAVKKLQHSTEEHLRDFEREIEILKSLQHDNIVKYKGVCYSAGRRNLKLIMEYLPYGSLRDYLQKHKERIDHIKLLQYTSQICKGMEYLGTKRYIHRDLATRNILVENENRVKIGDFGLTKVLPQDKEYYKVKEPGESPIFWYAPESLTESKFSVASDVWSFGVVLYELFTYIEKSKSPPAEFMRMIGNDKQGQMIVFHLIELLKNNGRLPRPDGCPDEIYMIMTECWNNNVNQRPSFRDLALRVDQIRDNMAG

The target of assay [2] is T1, JAK1/TYK2. Description: Inhibition of JAK1/TYK2 in human whole blood lymphocytes assessed as inhibition of IFNalpha induced STAT3 phosphorylation preincubated for 45 mins followed by IFNalpha addition and measured after 20 mins by flow cytometric analysis. The class given is cell-based. On the technique in general: In flow cytometry, cells or beads pass a laser one at a time.

For a further assay, the target named is JAK2/JAK1 (Homo sapiens, UniProt O60674+P23458). Description: Inhibition of JAK1/JAK2 in human whole blood assessed as inhibition of IL-6 induced STAT3 phosphorylation preincubated for 45 mins followed by Il-6 addition and measured after 20 mins by flow cytometric analysis. The class given is protein-complex assay.
In assay [3] the target is Tyrosine-protein kinase JAK1 (Homo sapiens, UniProt P23458). Description: Inhibition of GST tagged human recombinant JAK1 catalytic domain expressed in baculovirus using peptide substrate preincubated for 60 mins followed by substrate addition and measured after 60 mins by microfluidic assay. The method in brief:
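Caliper microfluidic assay of peptide-substrate phosphorylation by the relevant JAK enzyme, run at 1 mM ATP; IC50 values are geometric means of at least three determinations.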

A further assay addresses JAK3/JAK1 (Homo sapiens, UniProt P23458+P52333). Description: Inhibition of JAK1/JAK3 in human whole blood assessed as inhibition of IL-4 induced STAT6 phosphorylation preincubated for 45 mins followed by Il-4 addition and measured after 20 mins by flow cytometric analysis. The class given is protein-complex assay.

In the case of `CCc1cc(O)c(F)cc1-c1ccc2c(-c3nc4c([nH]3)CCN(C(=O)c3cnc(N5CCCCC5)cn3)C4)n[nH]c2c1`, the IC50 worked out at 4.2 µM on JAK1/TYK2 [1]; 0.0703 µM at Janus Kinase (JAK); 0.62 µM on JAK1/TYK2 [2]; 2.1 µM at JAK2/JAK1; 0.0022 µM in assay [3]; 1.8 µM at JAK3/JAK1.

Broadly, the IC50 is the point on the concentration scale where inhibition reaches its midpoint.

These data come from ChEMBL document CHEMBL4002590, “Design and Synthesis of a Pan-Janus Kinase Inhibitor Clinical Candidate (PF-06263276) Suitable for Inhaled and Topical Delivery for the Treatment of Inflammatory Diseases of the Lungs and Skin” (J Med Chem, 2017).
